Experimental data from ChEMBL document CHEMBL3046441, “Importance of physicochemical properties for the design of new pesticides” (J Agric Food Chem, 2011).

Assay: Dissociation constant, pKa of the compound at pH 7.3
Format: physicochemical

Compound: COc1cc(Cc2cnc(N)nc2N)cc(OC)c1OC [TRIMETHOPRIM]
- pKa: 0
